Experimental data taken from ChEMBL document CHEMBL1129605, “Synthesis, structure-activity relationships, and molecular modeling studies of N-(indol-3-ylglyoxylyl)benzylamine derivatives acting at the benzodiazepine receptor” (J Med Chem, 1996).

Amino acid sequences for entries named in this document (tags omitted). A change or cut given only in a name is not applied to a line headed by its entry.
UniProt P10063: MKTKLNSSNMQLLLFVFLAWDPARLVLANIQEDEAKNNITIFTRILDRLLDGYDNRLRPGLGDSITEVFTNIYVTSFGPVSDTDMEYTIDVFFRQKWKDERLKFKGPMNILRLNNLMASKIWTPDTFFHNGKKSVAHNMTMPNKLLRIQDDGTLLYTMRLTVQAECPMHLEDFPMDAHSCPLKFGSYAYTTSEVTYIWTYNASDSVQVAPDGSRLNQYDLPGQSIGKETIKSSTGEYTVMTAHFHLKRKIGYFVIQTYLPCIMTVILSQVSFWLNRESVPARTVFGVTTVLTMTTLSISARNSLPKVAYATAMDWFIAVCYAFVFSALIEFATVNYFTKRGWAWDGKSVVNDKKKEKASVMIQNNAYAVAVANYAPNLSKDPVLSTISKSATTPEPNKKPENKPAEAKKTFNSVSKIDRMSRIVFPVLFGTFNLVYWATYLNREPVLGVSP
UniProt P08220: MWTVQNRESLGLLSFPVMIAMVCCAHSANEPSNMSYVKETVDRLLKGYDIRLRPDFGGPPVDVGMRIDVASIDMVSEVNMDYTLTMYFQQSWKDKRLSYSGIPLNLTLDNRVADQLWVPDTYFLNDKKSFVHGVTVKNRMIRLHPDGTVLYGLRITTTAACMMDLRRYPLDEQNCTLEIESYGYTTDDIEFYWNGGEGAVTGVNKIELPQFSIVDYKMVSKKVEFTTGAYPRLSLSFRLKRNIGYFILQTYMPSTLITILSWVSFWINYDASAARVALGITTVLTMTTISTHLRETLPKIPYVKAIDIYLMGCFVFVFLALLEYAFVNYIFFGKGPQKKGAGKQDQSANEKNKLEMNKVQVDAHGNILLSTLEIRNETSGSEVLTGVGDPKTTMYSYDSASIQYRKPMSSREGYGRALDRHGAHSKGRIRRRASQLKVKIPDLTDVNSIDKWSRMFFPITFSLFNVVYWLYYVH
UniProt P20237: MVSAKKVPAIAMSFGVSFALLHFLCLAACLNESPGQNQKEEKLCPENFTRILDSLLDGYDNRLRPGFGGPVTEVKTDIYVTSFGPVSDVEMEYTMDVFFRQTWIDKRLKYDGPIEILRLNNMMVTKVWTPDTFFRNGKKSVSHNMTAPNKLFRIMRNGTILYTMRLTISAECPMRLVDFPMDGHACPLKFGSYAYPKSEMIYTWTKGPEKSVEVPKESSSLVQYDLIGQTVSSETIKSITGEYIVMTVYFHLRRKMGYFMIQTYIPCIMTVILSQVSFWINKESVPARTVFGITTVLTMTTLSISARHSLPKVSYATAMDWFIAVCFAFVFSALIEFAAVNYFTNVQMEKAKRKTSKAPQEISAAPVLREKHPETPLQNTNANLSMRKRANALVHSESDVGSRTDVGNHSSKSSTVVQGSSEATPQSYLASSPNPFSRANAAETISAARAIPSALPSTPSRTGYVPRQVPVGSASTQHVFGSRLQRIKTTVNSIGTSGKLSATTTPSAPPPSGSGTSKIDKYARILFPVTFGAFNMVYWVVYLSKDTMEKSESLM
UniProt P08219: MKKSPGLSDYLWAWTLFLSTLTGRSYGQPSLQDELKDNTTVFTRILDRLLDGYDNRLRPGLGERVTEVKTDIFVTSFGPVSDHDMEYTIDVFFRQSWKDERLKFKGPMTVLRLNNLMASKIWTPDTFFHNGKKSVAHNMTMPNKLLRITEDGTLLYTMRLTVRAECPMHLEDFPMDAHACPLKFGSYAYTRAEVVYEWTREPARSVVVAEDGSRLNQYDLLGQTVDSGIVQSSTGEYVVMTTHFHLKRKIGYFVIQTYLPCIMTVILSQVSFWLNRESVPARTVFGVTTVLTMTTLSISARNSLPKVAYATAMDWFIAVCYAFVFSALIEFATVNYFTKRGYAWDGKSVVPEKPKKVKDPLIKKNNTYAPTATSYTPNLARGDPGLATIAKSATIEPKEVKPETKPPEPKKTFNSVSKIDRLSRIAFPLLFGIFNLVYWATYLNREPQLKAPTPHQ
UniProt P10064: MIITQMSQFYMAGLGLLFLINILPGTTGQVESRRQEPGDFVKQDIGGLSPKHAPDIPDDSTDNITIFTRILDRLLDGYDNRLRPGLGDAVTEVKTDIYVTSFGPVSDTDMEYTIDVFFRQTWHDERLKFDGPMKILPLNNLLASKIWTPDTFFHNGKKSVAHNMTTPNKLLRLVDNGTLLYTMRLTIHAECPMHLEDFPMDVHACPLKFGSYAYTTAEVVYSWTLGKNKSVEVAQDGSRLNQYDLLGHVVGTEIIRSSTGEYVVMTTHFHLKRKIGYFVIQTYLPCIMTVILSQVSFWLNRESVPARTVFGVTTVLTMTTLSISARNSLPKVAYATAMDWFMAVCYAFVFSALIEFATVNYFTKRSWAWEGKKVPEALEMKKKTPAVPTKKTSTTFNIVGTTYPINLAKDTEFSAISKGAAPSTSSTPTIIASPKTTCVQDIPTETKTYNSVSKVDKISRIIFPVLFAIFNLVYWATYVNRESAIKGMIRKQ
UniProt P22300: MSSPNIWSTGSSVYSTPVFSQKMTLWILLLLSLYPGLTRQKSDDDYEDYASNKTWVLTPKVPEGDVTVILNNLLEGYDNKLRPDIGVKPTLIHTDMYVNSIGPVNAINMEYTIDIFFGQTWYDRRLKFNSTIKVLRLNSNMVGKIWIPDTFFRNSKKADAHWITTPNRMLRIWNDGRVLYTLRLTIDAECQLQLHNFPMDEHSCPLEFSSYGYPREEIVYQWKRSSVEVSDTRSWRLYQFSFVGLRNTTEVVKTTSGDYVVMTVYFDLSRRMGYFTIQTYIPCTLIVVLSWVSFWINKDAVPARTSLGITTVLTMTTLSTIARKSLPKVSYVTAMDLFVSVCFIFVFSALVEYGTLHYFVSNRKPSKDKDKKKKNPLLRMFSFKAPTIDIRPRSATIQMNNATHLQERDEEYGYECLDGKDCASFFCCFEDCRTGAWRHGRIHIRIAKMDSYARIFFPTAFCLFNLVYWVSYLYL

Molecular target: GABA-A receptor; anion channel (Bos taurus) (UniProt P10063+P08220+P20237+P08219+P10064+P22300)
Test: Relative binding to GABA-A receptor in the presence and absence of GABA (GABA shift), Ki(-GABA)/Ki(+GABA)
Assay type: protein-complex assay

## O=C1CN=C(c2ccccc2Cl)c2cc([N+](=O)[O-])ccc2N1
  GABA ratio: 1.97
